The numbers were not newly measured in article PMC5997768 (2018), which cites them from elsewhere.

As a reminder, the pKa is the pH at which an ionisable group is half protonated.

Where two headings read alike, the source gives them in different places. Only a part of the results on these compounds is given; other tests are left out.

The conditions of data set [1]: calculated value, no experimental value available; cited from earlier work.
For data set [2] the following is noted: cited from earlier work; for pKa: experimentally determined.

For `CCC(=O)N(c1ccccc1)C1(C(=O)OC)CCN(CCC(=O)OC)CC1`, the pKa in data set [1] was 7.51. For the molecule `CCC(=O)N(c1ccccc1)C1(COC)CCN(CCn2nnn(CC)c2=O)CC1`, the pKa in data set [1] is 7.82.

With `CCC(=O)N(c1ccccc1)C1(COC)CCN(CCc2cccs2)CC1`, in data set [2], the pKa was 7.85.

`CCC(=O)N(c1ccccc1)C1CCN(CCc2ccccc2)CC1`: in data set [2] (25 °C), the Experimentally obtained pKa at 25 °C is 8.43. In addition, the pKa in data set [2] was 8.43.
